This data set is described as follows: Solubility tests of tebuconazole in different solvents. It is filed as physicochemical. As to conditions: solubility of tebuconazole in the named solvent; percent by weight of the biocide in 100 g of the solvent.

On to “Benzoic acid mono propylene glycol esters [Example 1]”, for which the Solubility is reported as 30 % b.w.

(Values after US20110224084A1, “Agricultural Compositions” (priority 2008, published 2011).)
